From patent publication US20250276120A1, “METHOD FOR PREVENTING COAGULATION IN PATIENTS WITH IMPLANTED CARDIAC DEVICES” (Cadrenal Therapeutics, Inc., priority 2024, published 2025) come the findings set out here.

The conditions of this series: any CYP2C9 genotype.

Consider `CC(OC(=O)c1ccc(Cc2c(O)c3ccccc3oc2=O)cc1)(C(F)(F)F)C(F)(F)F` [Tecarfarin, 1,1,1,3,3,3-hexafluoro-2-methyl-2-propanyl 4-[(4-hydroxy-2-oxo-2H-chromen-3-yl)methyl] benzoate], for which the “exposure in healthy subjects versus CKD subjects regardless of CYP2C9 genotype” value is given as “similar”.
